Measured values: ChEMBL document CHEMBL3425489, “X-ray crystal structures of Escherichia coli RNA polymerase with switch region binding inhibitors enable rational design of squaramides with an improved fraction unbound to human plasma protein” (J Med Chem, 2015)

Experiment: Inhibition of Escherichia coli switch region of RNA polymerase after 1 hr by transcription-coupled translation assay

CO[C@H]1/C=C/O[C@@]2(C)Oc3c(C)c(O)c4c(O)c(c(/C=N/N5CCN(C)CC5)c(O)c4c3C2=O)NC(=O)/C(C)=C\C=C\[C@H](C)[C@H](O)[C@@H](C)[C@@H](O)[C@@H](C)[C@H](OC(C)=O)[C@@H]1C [RIFAMPIN]
IC50: 14 nM
